{
  "sequences": {"note": "Chains of the proteins cited; added tags and fusions are not shown.", "UniProt P41143, whole entry, looked up": "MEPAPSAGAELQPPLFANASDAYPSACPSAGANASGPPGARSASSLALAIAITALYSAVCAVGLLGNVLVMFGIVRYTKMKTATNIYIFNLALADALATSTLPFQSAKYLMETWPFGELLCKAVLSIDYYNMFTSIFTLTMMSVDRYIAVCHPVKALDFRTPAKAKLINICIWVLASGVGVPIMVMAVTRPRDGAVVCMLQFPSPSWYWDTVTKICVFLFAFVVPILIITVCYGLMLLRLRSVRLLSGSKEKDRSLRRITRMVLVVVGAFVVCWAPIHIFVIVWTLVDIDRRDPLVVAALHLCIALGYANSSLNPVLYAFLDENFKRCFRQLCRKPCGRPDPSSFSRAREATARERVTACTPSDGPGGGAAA"},
  "source": "BindingDB's records for 1652025",
  "about": "(Zambeletti Research Laboratories, 1991)",
  "molecular_target": "Delta-type opioid receptor (Homo sapiens, UniProt P41143)",
  "test": "ChEBML_146436",
  "text": "Affinity for opioid receptor delta sites",
  "data": [
    {"smiles": "CN(C(=O)Cc1ccc(Cl)c(Cl)c1)[C@@H]1CCCC[C@H]1N1CCCC1", "values": [
      {"measurement": "Ki", "value": "> 10", "unit": "µM"}
    ]}
  ]
}
